In ChEMBL document CHEMBL4177716, “Design, synthesis and pharmacological evaluation of some novel indanone derivatives as acetylcholinesterase inhibitors for the management of cognitive dysfunction” (Bioorg Med Chem, 2018):

Target: T1, Acetylcholinesterase (Mus musculus) (UniProt P21836)
T1 sequence (whole entry): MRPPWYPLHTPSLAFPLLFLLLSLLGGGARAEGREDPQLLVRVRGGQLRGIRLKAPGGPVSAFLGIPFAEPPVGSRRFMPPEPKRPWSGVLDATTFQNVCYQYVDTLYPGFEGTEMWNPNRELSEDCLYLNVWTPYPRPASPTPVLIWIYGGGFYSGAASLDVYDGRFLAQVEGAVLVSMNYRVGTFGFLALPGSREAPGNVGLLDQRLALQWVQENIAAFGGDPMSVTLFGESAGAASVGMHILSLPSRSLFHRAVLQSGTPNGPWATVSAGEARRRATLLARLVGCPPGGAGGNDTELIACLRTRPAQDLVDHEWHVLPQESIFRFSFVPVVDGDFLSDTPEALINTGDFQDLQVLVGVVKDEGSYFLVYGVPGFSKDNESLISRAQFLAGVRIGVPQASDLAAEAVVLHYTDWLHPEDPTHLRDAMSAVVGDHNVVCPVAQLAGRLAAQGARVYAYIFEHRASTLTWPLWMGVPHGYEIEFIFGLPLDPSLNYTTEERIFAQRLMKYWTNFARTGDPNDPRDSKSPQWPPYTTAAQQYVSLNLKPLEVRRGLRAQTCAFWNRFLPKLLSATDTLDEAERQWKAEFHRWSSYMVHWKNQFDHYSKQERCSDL
Assay: Inhibition of AchE in albino LACA mouse brain at 10^-3 M using acetylthiocholine iodide as substrate incubated for 10 mins measured for 2 mins by Ellman's method relative to control

First: COc1cc2c(cc1OC)C(=O)/C(=C\c1ccc(N3CCN(CCCN(C)C)CC3)cc1)C2
Second: COc1ccc2c(c1)C(=O)/C(=C\c1ccc(N3CCN(CCCN(C)C)CC3)cc1)C2
The inhibition of the first is higher: 90.3% for the first, 88% for the second.

First: COc1ccc2c(c1)C/C(=C/c1ccc(N3CCN(C)CC3)cc1)C2=O
Second: COc1ccc2c(c1)C(=O)/C(=C\c1ccc(N3CCN(C)CC3)cc1)C2
The inhibition of the first is higher: 17.9% for the first, 15.5% for the second.

Going from CCN1CCN(c2ccc(/C=C3/Cc4cc(OC)ccc4C3=O)cc2)CC1 to COc1ccc2c(c1)C/C(=C/c1ccc(N3CCN(CCCN(C)C)CC3)cc1)C2=O, the inhibition rises from 18.6% to 87%.

Compared with COc1cc2c(cc1OC)C(=O)C(CC1CCN(CC(=O)Nc3ccccc3)CC1)C2 (centres undefined), COc1cc2c(cc1OC)C(=O)/C(=C\c1ccc(N3CCN(C)CC3)cc1)C2 is higher in inhibition: 5.81% for the first, 54.7% for the second.

In the case of COc1ccc2c(c1)C/C(=C/c1ccc(N3CCN(c4ccccc4)CC3)cc1)C2=O, the inhibition is reported as 6.88%.
